Measured values reported in US8530475B2, “Bridged aryl piperazines derivatives useful for the treatment of CNS, GI-urinary and reproductive disorders” (Janssen Pharmaceutica NV, priority 2006, dated 2013).
Several values for one entry are separate records, joined by “and”; a condition that tells them apart may be missing. Equal entries are not always repeated.

The chains behind the UniProt entries cited, without tags or fusion partners.
UniProt P08908, whole entry: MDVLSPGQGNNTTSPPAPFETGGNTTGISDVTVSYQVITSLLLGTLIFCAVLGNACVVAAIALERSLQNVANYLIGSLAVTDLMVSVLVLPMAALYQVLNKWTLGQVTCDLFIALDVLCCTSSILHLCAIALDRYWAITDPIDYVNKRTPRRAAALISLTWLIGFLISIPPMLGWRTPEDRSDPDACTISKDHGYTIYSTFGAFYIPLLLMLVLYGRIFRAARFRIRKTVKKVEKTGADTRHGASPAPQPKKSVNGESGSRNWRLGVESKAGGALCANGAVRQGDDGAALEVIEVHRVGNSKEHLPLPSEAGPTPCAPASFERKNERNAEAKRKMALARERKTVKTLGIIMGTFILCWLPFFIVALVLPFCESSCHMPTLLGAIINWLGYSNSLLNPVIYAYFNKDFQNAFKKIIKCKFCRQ
UniProt P31645, whole entry: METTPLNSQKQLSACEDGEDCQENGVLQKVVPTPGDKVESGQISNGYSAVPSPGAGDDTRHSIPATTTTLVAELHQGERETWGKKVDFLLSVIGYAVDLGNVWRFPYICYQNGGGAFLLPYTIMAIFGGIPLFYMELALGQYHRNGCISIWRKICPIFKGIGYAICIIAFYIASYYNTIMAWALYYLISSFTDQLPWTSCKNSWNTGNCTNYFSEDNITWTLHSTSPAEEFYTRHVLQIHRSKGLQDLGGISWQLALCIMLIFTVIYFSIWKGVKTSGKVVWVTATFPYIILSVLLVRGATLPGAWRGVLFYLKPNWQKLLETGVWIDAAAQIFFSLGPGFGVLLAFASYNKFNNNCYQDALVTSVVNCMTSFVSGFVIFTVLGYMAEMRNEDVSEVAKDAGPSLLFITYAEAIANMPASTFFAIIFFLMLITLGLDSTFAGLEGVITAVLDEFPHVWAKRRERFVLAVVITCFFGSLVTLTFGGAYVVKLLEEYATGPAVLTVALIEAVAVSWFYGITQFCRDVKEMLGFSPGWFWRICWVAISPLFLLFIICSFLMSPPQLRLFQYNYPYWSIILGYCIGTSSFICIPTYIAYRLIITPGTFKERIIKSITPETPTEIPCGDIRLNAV

Experiments:
human 5HT1A receptor [1] = molecular target: T1, human 5HT1A receptor (Homo sapiens, UniProt P08908); experiment: Radioligand binding to the 5-HT1A receptor, [3H]8-OH-DPAT; details: Example 77; membranes of HEK293 cells, [3H]8-OH-DPAT 0.5 nM; <5 = not active at up to 10 μM
Description: Frozen membranes of HEK293 cells, stably-transfected with human 5-HT1A receptor (Perkin Elmer) were thawed on ice, briefly homogenised with an Ultra Turrax homogeniser and then suspended in Tris-HCl buffer (50 mM pH 7.7) supplemented with CaCl2 (4 mM) at an appropriate pre-determined protein concentration (5-10 μg protein per incubation mixture). Together with [^3H]8-OH-DPAT (0.5 nM final concentration; Perkin Elmer, USA), the membrane suspension was added to the test compound and incubated (30 min at 37° C.) in a total volume of 400 μl. Non-specific binding was determined in the presence of Spiroxatrine (1 μM). Free radioligand was separated from the radioligand-receptor complex by means of rapid vacuum filtration over GF/B unifilter plates with a Packard Harvester Filtration Unit. Unifilter plates were washed with ice cold Tris-HCl buffer (50 mM, pH 8.0) and then dried overnight. Bound counts were measured in a Topcount Scintillation Counter in the presence of Microscint O.

human 5-HTT = human 5-HTT (Homo sapiens, UniProt P31645); experiment: Radioligand binding to 5-HTT (serotonin transporter, SERT), [3H]Paroxetine; details: Example 77; membranes of HEK293 cells, [3H]Paroxetine 0.5 nM; <5 = not active at up to 10 μM
Description: For 5-HTT binding, frozen membranes of HEK293 cells stably-transfected with human 5-HTT (Perkin-Elmer, USA) were thawed on ice, briefly homogenised and resuspended in Tris-HCl buffer (50 mM, pH 7.4) supplemented with NaCl (120 mM) and KCl (5 mM) at a concentration of 50 μg protein per incubation mixture. The membrane suspension was added to the test compound together with [^3H]Paroxetine (0.5 nM) in a total volume of 250 μl and incubated (60 min, 25° C.). Non-specific binding was determined in the presence of imipramine (1 μM). Filtration was done over pre-soaked GF/B unifilters (0.01% PEI) and washed as above with the Tris-HCl salt buffer used for the incubation. Specific binding was calculated and sigmoidal curves were plotted by an internally-developed software program based on S-plus software. Ki values were calculated using the Cheng-Prusoff equation.

human 5HT1A receptor [2] = molecular target: T1, human 5HT1A receptor; experiment: [35S]GTPγS binding for 5-HT1A receptor inhibition (antagonist mode); details: Example 78, HEK293 membranes, antagonist mode with serotonin 100 nM, <5 = not active at up to 10 μM
Description: Compounds showing affinity at the 5-HT1A receptor were tested for functional agonism and antagonism in a [^35S]GTPγS (guanine triphosphate (non-hydrolysable, labelled with ^35S) binding assay on membranes of HEK293 cells permanently transfected with human 5HT1A receptor (Perkin Elmer, USA).
Frozen membranes were thawed, briefly homogenized and were diluted in incubation buffer, 100 mM NaCl, 0.3 mM MgCl2 and 10 μM guanine diphosphate (GDP), pH 7.4-7.5) supplemented with 10 μg/ml saponin. Assay mixtures contained 10 μg of membrane protein and test compound, buffer, or control agonist (serotonin, 10 μM). For the antagonistic assay, control agonist was present in all wells containing compound at a sub-maximal concentration (serotonin, 100 nM). After 20 minutes pre-incubation at 37° C., [^35S]GTPγS was added to a final concentration of 0.25 nM, briefly shaken and further incubated for another 20 minutes. Reactions were terminated by rapid vacuum filtration through GF/B unifilter plates using a Packard Harvester. Filters were washed three times with wash buffer (10 mM NaH2PO4, 10 mM Na2HPO4, pH 7.4), dried overnight and bound counts were measured in a Topcount Scintillation Counter in the presence of Microscint O. % Specific Binding was calculated and curves were plotted with help of in house software where pIC50 values were determined and Kb values were calculated.

| SMILES | h5HT1A pIC50 (human 5HT1A receptor [1]) | h5HTT pIC50 (human 5-HTT) | h5HT1A Antagonist pIC50 (human 5HT1A receptor [2]) |
| --- | --- | --- | --- |
| Clc1ccc(N2C[C@@H]3CC=CC[C@H]2CN3)cc1Cl | <5 | 7.31 | – |
| O[C@H](COc1ccnc2ccccc12)CN1C[C@@H]2CC=CC[C@H]1CN2c1ccc2ccccc2c1 | <5 | 6.66 | – |
| Cc1cc2c(OC[C@@H](O)CN3C[C@@H]4CC=CC[C@H]3CN4c3ccc4ccccc4c3)cccc2[nH]1 | 7.31 and 7.04 and 7.22 | 7.63 and 7.76 and 7.5 | – |
| COc1ccc(CN2C(=O)[C@@H]3CC=CC[C@H]2C(=O)N3c2ccccc2)c(OC)c1 | <5 | <5 | – |
| O[C@@H](COc1cccc2[nH]ccc12)CN1C[C@@H]2CC=CC[C@H]1CN2c1ccc2ccccc2c1 | <5 | 6.33 | – |
| COc1ccc2cc(N3C[C@@H]4CC=CC[C@H]3CN4CCc3ccc(F)cc3)ccc2c1 | 5.04 | 6.26 | <5 |
| Cc1cc2c(OC[C@@H](O)CN3C[C@@H]4CCCC[C@H]3CN4c3ccc4ccccc4c3)cccc2[nH]1 | 6.83 and 6.61 | 6.72 and 6.99 | – |
| O[C@H](COc1cccc2[nH]ccc12)CN1C[C@@H]2CC=CC[C@H]1CN2c1ccc2ccccc2c1 | – | 7.43 and 7.49 | 5.18 and 5.37 |
